The target of one assay is ERα (Homo sapiens, UniProt P03372). The experiment in a line: ERα high throughput imaging degradation assay in MCF7 cells. The format is cell-based. How it is done: Cells were fixed, permeabilised and stained with anti-ERα (rabbit clone SP1, Thermo) and anti-PR (mouse clone PgR 636, Dako) antibodies followed by secondary AlexaFluor 594 goat anti-rabbit and AlexaFluor 488 goat anti-mouse IgG antibodies. Imaging was using the Thermo Cellinsight scanner and average fluorescence intensity was analysed using Genedata.

By UniProt entry, the sequences of proteins in these tests, tags left out. Residues count along the entry.
UniProt P03372, whole entry: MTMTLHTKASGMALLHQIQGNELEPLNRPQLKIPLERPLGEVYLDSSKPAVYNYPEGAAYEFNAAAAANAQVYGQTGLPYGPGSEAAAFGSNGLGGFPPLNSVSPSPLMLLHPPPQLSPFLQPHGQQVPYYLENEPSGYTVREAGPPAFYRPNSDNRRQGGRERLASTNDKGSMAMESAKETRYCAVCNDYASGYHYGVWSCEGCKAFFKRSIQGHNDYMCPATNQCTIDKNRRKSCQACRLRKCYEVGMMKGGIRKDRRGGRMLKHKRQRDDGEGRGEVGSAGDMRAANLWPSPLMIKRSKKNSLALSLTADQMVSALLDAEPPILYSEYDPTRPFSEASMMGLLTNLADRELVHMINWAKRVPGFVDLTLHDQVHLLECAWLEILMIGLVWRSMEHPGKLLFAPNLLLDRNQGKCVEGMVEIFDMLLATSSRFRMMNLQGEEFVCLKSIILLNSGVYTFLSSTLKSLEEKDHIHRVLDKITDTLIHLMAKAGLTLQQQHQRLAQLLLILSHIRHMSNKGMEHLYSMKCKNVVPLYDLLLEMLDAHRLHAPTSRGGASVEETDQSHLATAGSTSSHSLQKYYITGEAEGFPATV
UniProt P03372, 311-547 limits assumed: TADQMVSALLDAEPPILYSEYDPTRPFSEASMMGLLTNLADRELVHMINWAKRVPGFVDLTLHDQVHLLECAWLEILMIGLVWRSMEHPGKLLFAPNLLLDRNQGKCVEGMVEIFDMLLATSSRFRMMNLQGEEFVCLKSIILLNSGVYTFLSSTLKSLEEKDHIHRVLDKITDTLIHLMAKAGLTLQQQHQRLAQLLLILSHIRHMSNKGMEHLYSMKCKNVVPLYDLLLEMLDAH

The target of assay [1] is recombinant human ERα ligand binding domain (LBD) (Homo sapiens, UniProt P03372). In words: ERα binding assay (LanthaScreen TR-FRET competition). Conditions: read-out: ERa binding, Mean, Table S4 source data. (TR-FRET usually uses a lanthanide donor and a delayed reading to cut background.)

For `Cc1ncsc1-c1ccc(CNC(=O)[C@@H]2C[C@@H](O)CN2C(=O)[C@@H](NC(=O)COCC2CC2COCCOc2cc(F)c([C@@H]3c4[nH]c5ccccc5c4C[C@@H](C)N3CC(C)(C)F)c(F)c2)C(C)(C)C)cc1` (single isomer, unassigned) [12], at ERα (Table S4 source data), the “ERa degradation, Dmax (%)” value was 91%. The half-maximal degradation concentration (DC50) (as a rule, the concentration at which degradation of the target reaches its halfway point) at ERα (read-out: ERα imaging degradation DC50, MCF7 cells, 20 to 24 hours) stood at 0.7 nM. Also, the IC50 in assay [1] was found to be 1 nM.

Values taken from PMC11091220, “Metabolism-driven in vitro/in vivo disconnect of an oral ERɑ VHL-PROTAC” (Communications Biology, 2024).
